Structures are written as SMILES. The entries are a selection whose mix differs from that of the whole data set. Records with an inconclusive call do not appear. Active and inactive are the calls of the source. Calls follow the shape of the dose curve; as a rule, active = well fitted inhibition curve with a large enough effect in the signal ratio, with a control signal flat (not every such curve was filed as active); inconclusive = small, poorly fitted or top-dose-only effect, or effect the other way, or a change in a side signal; inactive = flat fitted curve, though single readings scatter; the % refers to the signal ratio.

The results in this text go back to PubChem BioAssay AID1487 (National Center for Advancing Translational Sciences (NCATS), 2009).
% is scaled to controls: 0 for no effect and ±100 for the full control effect.

A short description of the assay: qHTS Assay for Modulators of Lamin A Splicing. As to conditions: HeLa LMNA splicing GFP/RFP minigene ratio, 48 h; at 46.1 µM (top of the series) unless noted.
As for `O=[N+]([O-])OCC(CO[N+](=O)[O-])(CO[N+](=O)[O-])CO[N+](=O)[O-]`, the ratio change, negative = inhibition was inactive: 2.79%. In the case of `CC1=NCCc2c1[nH]c1ccccc21.O=[N+]([O-])c1cc([N+](=O)[O-])c(O)c([N+](=O)[O-])c1`, the ratio change, negative = inhibition was inactive: -28.4%. For `Cc1cc(C)cc(OP(C)(=O)Nc2ccccn2)c1` (stereo unspecified) the value was inactive: 9.77%; for `CP(=O)(Nc1cccc(Br)c1)Oc1ccccc1` (stereo unspecified), inactive: -21.6% [at 46 µM]. With `Cc1ccc(C)c(NP(C)(=O)Oc2ccccc2)c1` (stereo unspecified), the ratio change, negative = inhibition is inactive: 2.93%. The result for `Cc1cc(C)cc(OP(C)(=O)Nc2ccc(C)cc2C)c1` (stereo unspecified) reads inactive: -8.22%. `Cc1nc2ccc3ccccc3c2s1.O=[N+]([O-])c1cc([N+](=O)[O-])c(O)c([N+](=O)[O-])c1`: the ratio change, negative = inhibition is inactive: 16.8%. The result for `O=[N+]([O-])c1cc([N+](=O)[O-])c(-n2nnc3ccccc32)c([N+](=O)[O-])c1` reads inactive: 1.14% [at 46 µM]; that for `CN1CCCCC1COC(=O)C1(O)c2ccccc2CCc2ccccc21` (stereo unspecified), inactive: -10.3%; that for `COc1ccccc1OP(C)(=O)Nc1c(C)cccc1C` (stereo unspecified), inactive: -5.02%.

On to `CCCOc1ccc(NP(C)(=O)Oc2ccc(Cl)cc2)cc1` (stereo unspecified), for which the ratio change, negative = inhibition is inactive: -6.45% [at 46 µM]. For `CP(=S)(Nn1cnnc1)Oc1ccccc1` (stereo unspecified), the ratio change, negative = inhibition is inactive: 8.23%. Consider `COc1ccccc1OP(C)(=O)Nc1ccccc1` (stereo unspecified), for which the ratio change, negative = inhibition is inactive: -0.146% [at 46 µM]. `CP(=O)(Nc1ccccc1Br)Oc1ccccc1` (stereo unspecified): the ratio change, negative = inhibition is inactive: 4.07%. For the compound `CCOP(C)(=S)SCC(=O)NC(C)C(=O)O` (stereo unspecified), the ratio change, negative = inhibition is inactive: 4.91%. In the case of `CCOC(=O)c1ccc(NP(C)(=O)Oc2ccc(OC)cc2)cc1` (stereo unspecified), the ratio change, negative = inhibition is inactive: -12.5%.

`CP(=O)(Nc1ccccn1)Oc1ccc(Cl)cc1` (stereo unspecified): the ratio change, negative = inhibition is inactive: -0.963%. With `CP(=O)(Oc1ccccc1)OC(c1ccccc1)C(F)(F)F` (stereo unspecified), the ratio change, negative = inhibition is inactive: 22.2% [at 46 µM]. For `Cc1cc(C)cc(OP(C)(=O)Nc2ccc(SC(F)(F)F)cc2)c1` (stereo unspecified) the value was inactive: -9.43%; for `CP(=O)(NC(=O)Nc1ccccc1)Oc1ccccc1` (stereo unspecified), inactive: 6.11%; for `O=[N+]([O-])[O-].[NH4+]`, inactive: -22%.

As to `CCN(CC)CCCOC(=O)C(O)(c1ccccc1)c1ccccc1`, the ratio change, negative = inhibition is inactive: 1.66% [at 9.22 µM].

Turning to `Cc1ccc(NP(C)(=O)Oc2ccccc2)c(C)c1` (stereo unspecified), the ratio change, negative = inhibition is inactive: 9.64%.

Turning to `COc1ccccc1OP(C)(=O)Nc1ccc(C)cc1` (stereo unspecified), the ratio change, negative = inhibition is inactive: -7.06%.

Take `COc1ccc(OP(C)(=O)Nc2cccc(F)c2)cc1` (stereo unspecified): the ratio change, negative = inhibition was inactive: -0.919%. On to `Cc1cc(C)cc(OP(C)(N)=O)c1` (stereo unspecified), for which the ratio change, negative = inhibition is inactive: 7.68% [at 46 µM].

As for `Cc1cccc(C)c1OP(C)(N)=O` (stereo unspecified), the ratio change, negative = inhibition was inactive: 9.75% [at 46 µM]. For the compound `Cc1nc2ccc3ccccc3c2o1.O=[N+]([O-])c1cc([N+](=O)[O-])c(O)c([N+](=O)[O-])c1`, the ratio change, negative = inhibition was inactive: 15.5%. Turning to `CP(=O)(OCCOc1ccccc1)OCCOc1ccccc1`, the ratio change, negative = inhibition is inactive: -5.2% [at 46 µM]. The result for `COc1ccc(OP(C)(=O)Nc2ccccc2Br)cc1` (stereo unspecified) reads inactive: -12%.

As to `COc1ccccc1OP(C)(=O)Nc1ccc(C)c(C)c1` (stereo unspecified), the ratio change, negative = inhibition is inactive: 3.43%. `Cc1c(NP(C)(=O)Oc2ccc(C(C)C)cc2)c(=O)n(-c2ccccc2)n1C` (stereo unspecified): the ratio change, negative = inhibition was inactive: 5.32%. In the case of `CCc1ccc(OP(C)(=O)O)cc1`, the ratio change, negative = inhibition was inactive: 10.5%. Take `COc1ccccc1OP(C)(=O)Nc1ccc(C)cc1C` (stereo unspecified): the ratio change, negative = inhibition is inactive: 8.96%. `CP(=O)(Nc1ccccn1)Oc1ccccc1` (stereo unspecified): the ratio change, negative = inhibition is inactive: -1.52%. As to `CN(C)CCOC(=O)C(O)(c1ccccc1)C1CCCC1` (stereo unspecified), the ratio change, negative = inhibition is inactive: -3.94%. As to `COc1ccc(OP(C)(=O)Nc2ccccn2)cc1` (stereo unspecified), the ratio change, negative = inhibition was inactive: 5.76%. `CP(=O)(Nc1ccc(Cl)cc1)Oc1ccc(F)cc1` (stereo unspecified): the ratio change, negative = inhibition is inactive: 0.719%.

As for `CC(C)(C)c1ccc(OP(C)(=O)O)cc1`, the ratio change, negative = inhibition was inactive: 5.65%. As to `CCN(CC)CC(O)COC(=O)C(O)(c1ccccc1)C1CCCCC1` (stereo unspecified), the ratio change, negative = inhibition is inactive: -0.83%. As for `CCc1ccc(OP(C)(=O)Nc2cccnc2)cc1` (stereo unspecified), the ratio change, negative = inhibition was inactive: -4.13% [at 46 µM]. `CP(=O)(Oc1ccccc1)N1CCOC1=O` (stereo unspecified): the ratio change, negative = inhibition was inactive: 6.18%. For `COc1ccccc1OP(C)(=O)Nc1c(C)n(C)n(-c2ccccc2)c1=O` (stereo unspecified) the value was inactive: 6.05%; for `CP(=O)(OC12CC3CC(CC(C3)C1)C2)OC12CC3CC(CC(C3)C1)C2`, inactive: 14.6%; for `CCOC(=O)c1ccc(NP(C)(=O)Oc2ccc(Cl)cc2)cc1` (stereo unspecified), inactive: 3.78%. As for `COc1ccc(OP(C)(=O)Nc2cccc(Br)c2)cc1` (stereo unspecified), the ratio change, negative = inhibition is inactive: -5.92%. For the compound `CN(C)CCOC(=O)C(O)(c1ccccc1)C1CCCCC1` (stereo unspecified), the ratio change, negative = inhibition was inactive: -1.08%. The result for `CP(=O)(Nc1ccc2c(c1)OCCO2)Oc1ccccc1` (stereo unspecified) reads inactive: -8.22%; that for `Cc1ccccc1NP(C)(=O)Nc1ccccc1C`, inactive: -2.01%. Turning to `CCN(CCCl)Cc1ccccc1C`, the ratio change, negative = inhibition was inactive: -23.1%. `CCOP(C)(=S)SCC(=O)NC(C)(CC)C(=O)O` (stereo unspecified): the ratio change, negative = inhibition is inactive: -8.05%. With `O=C(OCCN1CCN(CCOCc2ccccc2)CC1)C(O)(c1ccccc1)c1ccccc1`, the ratio change, negative = inhibition was inactive: 8.3%. For `CP(=O)(Nc1ccccc1F)Oc1ccccc1` (stereo unspecified), the ratio change, negative = inhibition is inactive: 5.92%. Take `CCN(CC)CCCOC(=O)C(O)(c1ccccc1)C1CCCCC1` (stereo unspecified): the ratio change, negative = inhibition was inactive: 2.01%. As to `CP(=O)(Nc1ccccc1)Oc1ccc(F)cc1` (stereo unspecified), the ratio change, negative = inhibition is inactive: -6.3%. `CCOC(=O)c1ccc(NP(C)(=O)Oc2ccc(F)cc2)cc1` (stereo unspecified): the ratio change, negative = inhibition is inactive: 0.446%.
